The test system of this experiment is Escherichia coli. The following applies: JM109.

The results in this text go back to ChEMBL document CHEMBL1649468, “AAC(6')-Iaf, a novel aminoglycoside 6'-N-acetyltransferase from multidrug-resistant Pseudomonas aeruginosa clinical isolates” (2009).

With GENTAMICIN, inhibition of growth (MIC) required 0.5 µg/mL.
